Literature values in paper PMC6278313.

Assays:
COX-2 [1] = molecular target: COX-2; design: method as in literature cited in the text (18-30); conditions: Chart 1; ref literature cited in the text (18-30); cited from earlier work
COX-2 [2] = conditions: Chart 1, ref literature cited in the text (18-30), cited from earlier work

| SMILES | Ki (COX-2 [1]) [nM] | specific signal / specific binding in vivo (COX-2 [2]) | brain entry (COX-2 [2]; PET in vivo) |
| --- | --- | --- | --- |
| [11CH3]Oc1ccc(-c2cc(C(F)(F)F)nn2-c2ccc(S(N)(=O)=O)cc2)cc1 [[^11C]2] | 8 | No brain specific signal | – |
| [11CH3]Oc1ccc(-c2c(-c3ccc(S(N)(=O)=O)cc3)[nH]c3ccccc23)cc1 [[^11C]7] | 6 | No specific signal | – |
| CS(=O)(=O)c1ccc(C2=C(c3ccc(O[11CH3])cc3)CCC2)cc1 [[^11C]8] | 5 | – | Brain penetrant |
